Patent US10441628B2, “High activity tumour inhibitor and preparation method and use thereof” (BAO KANG BIOMEDICAL HEALTHCARE INC, priority 2014, dated 2019)

Assays:
BEL7404 = format: cell-based; details: 72 h
Description: (§1) The hepatoma cell line BEL7404 (purchased from The Chinese Academy of Sciences cell bank) was a cell line with high expression of YAP protein; HCCLM3 (purchased from The Chinese Academy of Sciences cell bank) was a cell line with low expression of YAP protein. The hepatoma cell lines (BEL7404 or HCCLM3) were inoculated into a 96-well plate at the concentration of 2000 cells/well, and incubated overnight in RPMI1640 containing 1% bovine serum at 37° C. The hepatoma cell lines were treated with polypeptides having different concentrations at 37° C. for 72 h.
(§2) Moreover, IC50 values of the cells in 1.1 were determined using CCK-8 kit.
(§3) The polypeptide represented by SEQ ID NO.:1 was further modified. The IC50 values of the polypeptides at a concentration of 1% in cell cultivating for 72 h were measured.

HCCLM3 = format: cell-based; details: 72 h
Description: as §1, §2, §3

Structure (SMILES) | IC50 (BEL7404) [µM] | IC50 (HCCLM3) [mM]
CC(C)[C@H](NC(=O)CNC(=O)[C@@H](NC(=O)[C@@H]1CCCN1)[C@@H](C)O)C(=O)N[C@H](C(=O)N[C@@H](CO)C(=O)NCC(=O)N1CCC[C@H]1C(=O)N[C@@H](C)C(=O)N[C@@H](C)C(=O)N[C@H](C(=O)N1CCC[C@H]1C(=O)N[C@H](C(=O)N[C@@H](C)C(=O)N[C@@H](CCC(N)=O)C(=O)N[C@@H](Cc1c[nH]cn1)C(=O)O)[C@@H](C)O)[C@@H](C)O)C(C)C [compound 19] | 763 ± 31.5 | > 1
CC[C@H](C)[C@H](N)C(=O)N[C@H](C(=O)N[C@@H](Cc1c[nH]cn1)C(=O)N[C@H](C(=O)N[C@@H](CCCNC(=N)N)C(=O)NCC(=O)N[C@@H](CC(=O)O)C(=O)N[C@@H](CO)C(=O)N[C@@H](CCC(=O)O)C(=O)N[C@H](C(=O)N[C@@H](CC(=O)O)C(=O)N[C@@H](CC(C)C)C(=O)N[C@@H](CCC(=O)O)C(=O)N[C@@H](C)C(=O)N[C@@H](CC(C)C)C(=O)N[C@@H](Cc1ccccc1)C(=O)O)[C@@H](C)O)C(C)C)C(C)C [compound 17] | 211 ± 44.2 | > 1
CC(C)C[C@H](NC(=O)[C@H](C)NC(=O)CNC(=O)[C@H](C)NC(=O)[C@@H](N)[C@@H](C)O)C(=O)N[C@H](C(=O)N1CCC[C@H]1C(=O)N[C@@H](CCC(N)=O)C(=O)N[C@@H](Cc1c[nH]cn1)C(=O)N[C@H](C(=O)N[C@@H](CCCNC(=N)N)C(=O)N[C@@H](C)C(=O)N[C@@H](Cc1c[nH]cn1)C(=O)N[C@@H](CO)C(=O)N[C@@H](CO)C(=O)N1CCC[C@H]1C(=O)O)C(C)C)[C@@H](C)O [compound 18] | 816 ± 14.4 | > 1
